# Tested on: Serratia marcescens
sequence,measurement,value
GENTAMICIN,MIC,0.5 µg/mL

# Source: ChEMBL document CHEMBL1125677, “New derivatives of kanamycin B obtained by combined modifications in positions 1 and 6". Synthesis, microbiological properties, and in vitro and computer-aided toxicological evaluation” (J Med Chem, 1991)
